# Ab-95 light chain CDR variants: yeast mating affinities

Binding partner: SARS-CoV-2 spike HR2 peptide, sequence PDVDLGDISGINAS.

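Phage display of a naive human antibody library on the peptide gave the parent. Variants in AAYL52 differ from the parent at up to three CDR positions; double and triple changes were sampled at random. The assay is AlphaSeq: two haploid yeast populations carry antibody and antigen on their surface. The frequency of each diploid, read from paired DNA barcodes, reflects how well the two displayed proteins bind. A regression on co-assayed BCL2-family reference pairs converts the normalised counts of each replicate to an apparent Kd. The assay was run in three technical replicates.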

Parent scFv Ab-95: VH joined to VL by a 15-residue (Gly4Ser)3 linker. Changes lie in the light chain CDRs alone.
VH: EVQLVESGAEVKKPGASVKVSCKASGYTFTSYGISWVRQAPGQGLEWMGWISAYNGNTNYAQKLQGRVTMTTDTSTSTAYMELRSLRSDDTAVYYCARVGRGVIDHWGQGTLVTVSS
VL: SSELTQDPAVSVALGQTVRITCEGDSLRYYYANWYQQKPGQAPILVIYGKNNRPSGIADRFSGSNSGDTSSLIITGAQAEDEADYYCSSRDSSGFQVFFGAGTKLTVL

Positions count from residue 1 of the parent VL; P54A puts A in place of P. Scale: log10 of Kd in nM, estimated from mating counts; low values are strong binders. The mean shown is taken over the replicates in which the pair was detected. Where no diploid with the target was found in any replicate, the entry reads "no signal": below detection, most likely a poor binder, though not proof of it. As a blank, each scFv also met three strains without target: over library AAYL52, 28% of these pairings were detected, typically at 3.91 and seldom below 2.90.

changes	mean log10 Kd (nM)	detected
P54A+Q96I+V97D	3.89	3/3
L27W+Y30Q+S93T	3.31	3/3
G49I+S88V+S92F	no signal	0/3
L27I+Y29D+Y31L	2.50	3/3
Y29T+F95S+V97C	2.42	3/3
G24M+N52V+S92V	3.13	3/3
R28G+G49E+S93L	3.74	1/3
D25K+Y29N+S55N	1.71	3/3
G24C+Y31G+G94P	2.98	3/3
Y29N+Y31H+S92P	1.26	3/3
N33M+N51K+R90M	4.04	3/3
D25Q+S89R	2.75	2/3
S26D+D91M+V97A	2.65	3/3
G24E+L27V+S89E	6.00	2/3
L27I+V97W	3.22	3/3
S26V+R90L+V97L	4.53	1/3
Y31M+N33F+F98Y	5.35	1/3
E23R+G24A+Q96C	3.12	3/3
Y29L+N51K+P54Y	3.21	2/3
R90E+G94D+F95P	4.23	2/3
R28A+V97N	4.06	2/3
R53L+S89R+V97D	4.70	1/3
R28D+Y29T+F95C	3.22	3/3
N51T+P54G+D91G	3.99	1/3
Y29T+S89P+G94S	1.59	3/3
A32L+S55P	3.66	3/3
Y30H+A32L+S55E	2.43	3/3
N33G+S93V+G94R	4.88	2/3
Y30D+A32V+N51W	3.56	3/3
E23F+P54G+F98C	3.16	3/3
Y30S+R90Q+G94L	1.24	3/3
D25F+L27E+S89H	2.66	1/3
L27E+F98D	4.19	1/3
R90I+D91V+F95H	4.11	1/3
S26V+G49N	no signal	0/3
L27V+P54V+V97R	no signal	0/3
Y31S+N51I+N52G	2.14	3/3
L27D+S89Y+Q96W	no signal	0/3
N52H+S89P	4.55	1/3
G49I+S55N+S93A	4.20	2/3
N33F+S92W	5.77	1/3
S92Y+F95V+F98L	2.27	3/3
Y29S+Y30W+S93A	2.21	3/3
L27Y+Y31E+G94T	3.44	2/3
D25L+R90C+V97G	2.62	3/3
E23Y+R28V+Y31E	1.94	3/3
A32I+R53Y+R90P	no signal	0/3
D25T+P54K+F98D	3.78	3/3
G24Y+Y31R+P54D	4.15	2/3
D25I+N51V+F98C	3.09	1/3
R28C+D91S+Q96T	3.46	3/3
Y29D+S55V+Q96I	3.24	3/3
S55M+S88P+F95I	2.93	3/3
Y29E+G49D+G94K	3.40	3/3
D25L+Q96N+V97Y	3.79	3/3
G24D+K50A+G94M	no signal	0/3
D25K+S26E+G94I	4.15	1/3
K50H+S88H+D91C	2.81	3/3
S26I+N33W+K50F	no signal	0/3
R28K+A32C+F95Y	2.32	3/3
R28T+Y29M+N52C	3.87	3/3
Y29H+S89R+S93G	2.80	3/3
E23D+K50V+F95R	2.17	3/3
E23Q+R28C+D91M	4.43	2/3
L27V+K50S+F95D	4.82	1/3
G24V+D25F+S55W	3.35	3/3
S26R+A32N+K50S	1.62	3/3

5 of these entries, quoted again:

| changes | mean log10 Kd (nM) | detected |
|---|---|---|
| Y29H+S89R+S93G | 2.80 | 3/3 |
| D25F+L27E+S89H | 2.66 | 1/3 |
| G24C+Y31G+G94P | 2.98 | 3/3 |
| D25K+Y29N+S55N | 1.71 | 3/3 |
| G24E+L27V+S89E | 6.00 | 2/3 |

Parent in this assay: reference entry 2.31, copy in this library 2.25.

Source: Engelhart et al. 2022 (doi:10.1038/s41597-022-01779-4), MIT Lincoln Laboratory and A-Alpha Bio; data file from the FLAb repository.